Data published in PubChem BioAssay AID624467 (The Scripps Research Institute Molecular Screening Center, 2012).
The list shows a part of the results, in another mix than the full data. The source made the active and inactive calls.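 Rule for the calls: active = activation above the mean activation of all test compounds in the run plus 3 SD (cut at about 38% in these data); inactive = the rest.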

The chains behind the UniProt entries cited, without tags or fusion partners. Where a name states a change or a piece, a line headed by the entry shows the natural chain unless it says otherwise.
UniProt Q96RJ0: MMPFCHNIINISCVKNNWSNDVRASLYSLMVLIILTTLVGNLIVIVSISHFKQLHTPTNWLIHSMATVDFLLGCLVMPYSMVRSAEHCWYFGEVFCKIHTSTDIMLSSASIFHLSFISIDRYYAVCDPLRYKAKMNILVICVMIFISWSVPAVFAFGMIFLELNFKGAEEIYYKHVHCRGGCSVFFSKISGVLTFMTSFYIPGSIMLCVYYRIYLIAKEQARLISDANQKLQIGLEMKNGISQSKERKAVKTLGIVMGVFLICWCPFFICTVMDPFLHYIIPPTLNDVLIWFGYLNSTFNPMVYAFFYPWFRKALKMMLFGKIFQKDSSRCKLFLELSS

Biological target: Trace amine-associated receptor 1 (Homo sapiens) (UniProt Q96RJ0)
Assay: activators of TAAR1 calcium mobilization – Fluo-8 calcium fluorescence, CHO RD-HGA16 cells, primary screen (AID 624467)
Settings: CHO RD-HGA16 TAAR1, Fluo-8 calcium fluorescence; at 3 µM; active compounds read high; vehicle wells 0%, saturating PEA agonist 100%

| SMILES | activation |
| --- | --- |
| COC(=O)C1(C)COP(=O)(N2CCCC2)OC1 (configuration not stated) | inactive: 1.11% |
| COP1(=S)c2c(C)nn(CCC#N)c2N=C(c2ccc(F)cc2)N1C (configuration not stated) | inactive: 2.86% |
| O=C(O)C(=O)c1ccc(N(CCCl)CCCl)cc1 | inactive: 1.87% |
| O=C(Nc1ccncc1[N+](=O)[O-])c1ccc([N+](=O)[O-])cc1[N+](=O)[O-] | inactive: 1.91% |
| O=C(COc1ccccc1)OC1CN2CCC1CC2 (configuration not stated) | inactive: 8.28% |
| O=C(OC1CN2CCC1CC2)c1cccc([N+](=O)[O-])c1 (configuration not stated) | inactive: 0.96% |
| CCOC(=O)c1ccc(NC(=O)C(C)(CCl)SC)cc1 (configuration not stated) | inactive: 2.83% |
| CCC(C)N(CC(C)C)C(=S)SC(NC(C)=O)C(Cl)(Cl)Cl (configuration not stated) | inactive: -0.56% |
| CCOC(=O)Nc1ccc([As](=O)(O)O)c(O)c1 | inactive: 0.52% |
| O=C(O)C(O)c1ccc(N(CCCl)CCCl)cc1 (configuration not stated) | inactive: 5.63% |
| CC1CCNP(=O)(N(CCCl)CCCl)O1 (configuration not stated) | inactive: 0.38% |
| COP(=O)(OC)N1CC1c1ccccc1 (configuration not stated) | inactive: 16.5% |
| Cc1cc(SC(NC(=O)c2ccccc2)C(Cl)(Cl)Cl)nc(C(C)C)n1 (configuration not stated) | inactive: 1.21% |
| CCCCOc1ccc(C(=O)NCC2(N3CCCCC3)CCCCC2)cc1OC | inactive: 0.83% |
| CCOC(=O)Nc1cccc([As](=O)(O)O)c1 | inactive: -0.37% |
| O=P(Nc1ccccn1)(c1cccc2ccccc12)c1cccc2ccccc12 | inactive: 17.3% |
| Cc1cc(SC(NC=O)C(Cl)(Cl)Cl)ncn1 (configuration not stated) | inactive: 6.94% |
| O=[N+]([O-])c1ccc(Nc2ccc(Oc3ccc([N+](=O)[O-])cc3[N+](=O)[O-])cc2)c([N+](=O)[O-])c1 | inactive: -1% |
| COc1cc(C(=O)NCC2(N3CCOCC3)CCCCC2)ccc1OCC(C)C | inactive: 8.64% |
| O=[N+]([O-])c1ccc(-c2cc([N+](=O)[O-])c(O)c([N+](=O)[O-])c2)cc1 | inactive: -0.52% |
| O=[As](O)(c1ccc(O)cc1)c1ccccc1O | inactive: 5.94% |
| C[As](=O)(O)c1cccc(C(=O)O)c1 | inactive: 2.56% |
| [N-]=[N+]=NC1CCCCC1NC(=O)c1cc([N+](=O)[O-])cc([N+](=O)[O-])c1 (configuration not stated) | inactive: 0.03% |
| Cc1ccc(OP(=O)(Nc2ccc([N+](=O)[O-])cn2)Oc2ccc(C)cc2)cc1 | inactive: -1.02% |
| Cc1ccc2nc3c(c(C)c2c1)CC(C(Cl)Cl)S3 (configuration not stated) | inactive: 1.24% |
| ClCCSc1nnc(-c2cccnc2)o1 | inactive: 11.4% |

| SMILES | activation |
| --- | --- |
| CC(C)c1ccc(OP(=O)(Nc2ccccn2)Oc2ccccc2F)cc1 (configuration not stated) | inactive: 10.1% |
| COC(=O)C1(C)COP(=O)(N2CCCCCC2)OC1 (configuration not stated) | inactive: 2.82% |
| O=C(OC1CN2CCC1CC2)c1cccc2[nH]cnc12 (configuration not stated) | inactive: 4.78% |
| CCN(CC)C(=S)SC(NC=O)C(Cl)(Cl)Cl (configuration not stated) | inactive: 8.53% |
| CC(C)NC(=O)NP(=O)(Oc1ccccc1)Oc1ccccc1 | inactive: 2.75% |
| Cc1c2c(nc3ccccc13)SC(C(Cl)Cl)C2 (configuration not stated) | inactive: 22.6% |
| Cc1cc(=O)[nH]c(N[N+](=O)[O-])n1 | inactive: -0.71% |
| O=C(OC1CN2CCC1CC2)C12CC3CC(CC(C3)C1)C2 (configuration not stated) | inactive: 16.9% |
| O=P1(N(CCCl)CCCl)Nc2ccccc2N1 | inactive: 0.68% |
| O=P1(N(CCCl)CCCl)OCCCN1CCCl (configuration not stated) | inactive: 1.12% |
| COc1cc(I)ccc1[As](=O)(O)O | inactive: 3.77% |
| COc1ccc2nc(NP(=O)(c3ccccc3)c3ccccc3)sc2c1 | inactive: 8.66% |
| O=[N+]([O-])c1cc(Oc2ccc([N+](=O)[O-])cc2C(F)(F)F)cc([N+](=O)[O-])c1 | inactive: -1.08% |
| COc1ccc(N/C(=N/P(=O)(N2CCOCC2)N2CCOCC2)N2CCOCC2)cc1 | inactive: 2.02% |
| O=C(OC1CN2CCC1CC2)c1ccc(Cl)cc1 (configuration not stated) | inactive: 6.68% |
| CS(=O)(=O)c1ccc(Cl)c(NC(=O)COC(=O)C(O)(c2ccccc2)c2ccccc2)c1 | inactive: 15.7% |
| COc1cc(C(=O)NCC2(N3CCOCC3)CCCCC2)cc(Cl)c1OC(C)C | inactive: 0.24% |
| O=[As](O)(O)c1cccnc1 | inactive: -0.16% |
| O=[As](O)(c1cccc(O)c1)c1cccc(O)c1 | inactive: 1.12% |
| Cc1cccc(OCC(=O)OC2CN3CCC2CC3)c1 (configuration not stated) | inactive: 0.92% |
| Nc1cccc2c([As](=O)(O)O)cccc12 | inactive: 13.3% |
| Cc1ccc(NCCc2c([N+](=O)[O-])cc([N+](=O)[O-])cc2[N+](=O)[O-])cc1 | inactive: -1.32% |
| CCCOP(=S)(Nc1nc(N)cc(=O)[nH]1)OCCC | inactive: 0.02% |
| CCOP(=O)(Nc1cccc2ccccc12)OCC | inactive: 5.55% |
| COc1cc(C2NCCC3(OCCO3)C2(C)C)cc(OC)c1OC (configuration not stated) | inactive: -0.73% |
| O=P(Nc1nccs1)(Oc1ccccc1)Oc1ccccc1 | inactive: 4.7% |

| SMILES | activation |
| --- | --- |
| CCOP1(=S)c2c(C)nn(CCC#N)c2N=C(c2ccccc2F)N1C (configuration not stated) | inactive: 9.82% |
| Nc1ccccc1[As](=O)(O)c1ccccc1 | inactive: 4.25% |
| O=C(O)COc1ccc([As](=O)(O)O)cc1[N+](=O)[O-] | inactive: 0.71% |
| NC(=O)Nc1ccc([As](=O)(O)O)cc1 | inactive: 6.23% |
| CCOP1(=S)c2c(C)nn(CCC#N)c2N=C(c2ccc(F)cc2)N1C (configuration not stated) | inactive: -0.33% |
| CN(C(=O)Cc1ccccc1)[C@@H]1CC[C@]2(CCCO2)C[C@H]1N1CCCC1 | inactive: -0.19% |
| N#CCCN(C(=O)COC(=O)C(O)(c1ccccc1)c1ccccc1)c1ccc(F)cc1 | inactive: 8.78% |
| CN(C(=O)Cc1ccc(Cl)c(Cl)c1)[C@H]1CC[C@@]2(CCCO2)C[C@@H]1N1CCCC1 | inactive: -0.36% |
| CN(C)C(=O)c1cc([N+](=O)[O-])cc2c1-c1c(cc([N+](=O)[O-])cc1[N+](=O)[O-])C2=O | inactive: 3.08% |
| O=[N+]([O-])c1ccc2c(c1)nnn2O | inactive: 0.72% |
| CC1CCC(C(C)C)C(OP(=O)(Nc2ccccn2)c2ccccc2)C1 (configuration not stated) | inactive: 9.7% |
| Cc1ccc(C(=O)OC2CN3CCC2CC3)cc1 (configuration not stated) | inactive: -1.78% |
| Cc1nn(-c2ccccc2)c2c1P(=O)(N1CCOCC1)N(C)C(c1ccccc1)=N2 (configuration not stated) | inactive: 0.88% |
| CN(C)C1(CNC(=O)c2ccc(S(C)(=O)=O)cc2)CCCCC1 | inactive: 0.7% |
| CCCC1OP(=O)(Nc2ccccc2)OCC1CC (configuration not stated) | inactive: -0.02% |
| O=C(/C=C/c1ccccc1)OC1CN2CCC1CC2 (configuration not stated) | inactive: 3.28% |
| Cc1ccc(S(=O)(=O)N(CCCN)CCCc2c(C)nc(N)[nH]c2=O)cc1 | inactive: -0.17% |
| O=P1(Nc2ncccn2)COc2ccccc2OC1 | inactive: 3.54% |
| Nc1cccc([As](=O)(O)c2ccccc2)c1 | inactive: 2.09% |
| O=P1(Nc2ccc(Br)cn2)COc2ccccc2OC1 | inactive: 1.74% |
| NS(=O)(=O)c1cccc(NC(=O)COC(=O)C(O)(c2ccccc2)c2ccccc2)c1 | inactive: 1.14% |
| O=[As](O)(c1cccs1)c1cccs1 | inactive: 4.02% |
| Cc1ccc(OCC(=O)OC2CN3CCC2CC3)cc1 (configuration not stated) | inactive: 7.5% |
| CCOP(=O)(NC(=NC(C)c1ccccc1)NC(C)c1ccccc1)OCC (configuration not stated) | inactive: 0.49% |
| O=P1(Nc2ccccn2)COc2ccccc2OC1 | inactive: 10.2% |
| CCC1=CC2Cc3nc4ccc(Cl)cc4c(N)c3C(C1)C2 (configuration not stated) | inactive: 9.91% |

| SMILES | activation |
| --- | --- |
| CN(CCCl)Cc1cc(Cl)c(NC2=NCCN2)c(Cl)c1 | inactive: -0.64% |
| CCOP(=O)(Nc1ccc(C)cn1)OCC | inactive: 0.22% |
| CC(C)(C)C(=O)NC(Sc1ncccn1)C(Cl)(Cl)Cl (configuration not stated) | inactive: -0.32% |
| O=P1(N(CCCl)CCCl)NCCC(C(F)(F)F)O1 (configuration not stated) | inactive: -0.25% |
| Clc1n[nH]nc1-c1nn[nH][15n]1 | inactive: 9.28% |
| COc1ccccc1CNC(=O)COC(=O)C(O)(c1ccccc1)c1ccccc1 | inactive: 4.55% |
| CN(C(=O)Cc1ccc(Cl)c(Cl)c1)C1CCCC[C@@H]1N1CCCC1 (some centres not stated) | inactive: 2.23% |
| CC(C)/C=N\N=C(\N)N[N+](=O)[O-] | inactive: 4.17% |
| CN(C(=O)Cc1ccc(Cl)c(Cl)c1)[C@@H]1CCCC[C@H]1N1CCCC1 | inactive: 3.37% |
| CC1(CBr)Cn2c(nc3ccccc3c2=O)S1 (configuration not stated) | inactive: 10.8% |
| CC(C)C(=O)NC(Sc1ccccc1)C(Cl)(Cl)Cl (configuration not stated) | inactive: 3.08% |
| O=P(Nc1nccs1)(c1ccccc1)c1ccccc1 | inactive: 5.92% |
| c1nnnn1CCn1cnnn1 | inactive: 10.3% |
| O=P(Nc1ccccn1)(c1ccc(Br)cc1)c1ccc(Br)cc1 | inactive: 10.5% |
| CN(C)C1(CNC(=O)c2ccc(Cl)c(S(N)(=O)=O)c2)CCCCC1 | inactive: -0.22% |
| Nc1ccc(CCCCOc2ccccc2)cc1 | inactive: 6.96% |
| COc1ccc(N)c([N+](=O)[O-])c1[N+](=O)[O-] | inactive: 7.45% |
| C[C@H]1OP(=O)(Oc2ccccc2)[C@H](O)[C@H](O)[C@H]1N=[N+]=[N-] (some centres not stated) | inactive: -0.9% |
| O=P(Nc1nc2ccccc2s1)(c1ccccc1)c1ccccc1 | inactive: 3.05% |
| O=[As](O)(c1ccccc1)c1ccc(O)cc1 | inactive: 0.76% |
| O=[N+]([O-])c1ncn(CCn2cnc([N+](=O)[O-])n2)n1 | inactive: 1.29% |
| CC(=O)NC(SC(=S)N(C)C)C(Cl)(Cl)Cl (configuration not stated) | inactive: 3.45% |
| O=C(OC1CN2CCC1CC2)c1cccc(Cl)c1 (configuration not stated) | inactive: 10.3% |
| Nc1ccc([As](=O)(O)c2ccc([N+](=O)[O-])cc2)cc1 | inactive: 3.47% |
